In patent US11014933B2 (priority 2018, dated 2021):

Biological target: KOR (Homo sapiens, UniProt P41145)
Test: Competition radioligand binding, KOR ([3H]diprenorphine)
Conditions: ratio of Ki KOR to Ki MOR

O=C(N[C@@H]1CC[C@@]2(O)[C@H]3Cc4ccc(O)c5c4[C@@]2(CCN3CC2CC2)[C@H]1O5)c1ccncc1F [Compound 1]
Selectivity κ/μ: 13.3
